Measurements published in ChEMBL document CHEMBL4619726, “Synthesis of novel tryptanthrin derivatives as dual inhibitors of indoleamine 2,3-dioxygenase 1 and tryptophan 2,3-dioxygenase” (Bioorg Med Chem Lett, 2020).

Sequences of proteins named here, by UniProt entry; tags and fusion partners are left off. A change or cut given only in a name is not applied to a line headed by its entry.
UniProt P48775: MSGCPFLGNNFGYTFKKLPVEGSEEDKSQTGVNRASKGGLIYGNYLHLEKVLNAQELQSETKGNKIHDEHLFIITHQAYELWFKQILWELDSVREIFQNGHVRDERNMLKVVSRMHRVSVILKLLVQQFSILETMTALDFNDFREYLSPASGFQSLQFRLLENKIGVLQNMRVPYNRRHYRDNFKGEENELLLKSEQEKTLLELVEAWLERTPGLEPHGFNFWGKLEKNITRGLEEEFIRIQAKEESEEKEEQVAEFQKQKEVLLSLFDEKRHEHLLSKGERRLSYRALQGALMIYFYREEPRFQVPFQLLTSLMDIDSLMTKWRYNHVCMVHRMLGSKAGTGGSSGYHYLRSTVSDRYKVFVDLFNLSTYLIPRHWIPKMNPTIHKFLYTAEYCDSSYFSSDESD

Target: Tryptophan 2,3-dioxygenase (Homo sapiens, UniProt P48775)

IC50: 937 nM
Compound: Fc1ccc2c(/C=C/c3cccnc3)c[nH]c2c1
